Laboratory results as given in patent US20140024677A1, “METHODS FOR INDUCING MITOCHONDRIAL BIOGENESIS” (MUSC Foundation For Research Development, priority 2012, published 2014).
Like-named read-outs stand apart in the source and are kept apart here.

Key:
[1] = system: primary renal proximal tubule cells (RPTC); details: for Average uncoupled OCR ratio: 5 μM, fold change in FCCP-OCR relative to DMSO controls, LOPAC compounds
[2] = system: primary renal proximal tubule cells (RPTC); details: cited from earlier work

CNC[C@H](O)c1ccc(O)c(O)c1 [epinephrine]
Change in FCCP-OCR relative to vehicle control [1]: No significant changes | MB activity previously reported (Wills et al. 2012) [2]: not stimulate MB

(±)-Epinephrine
Average uncoupled OCR ratio ([1]; RPTC, 24 hr): 0.92 ± 0.03

NCCc1ccc(O)c(O)c1 [dopamine]
Change in FCCP-OCR relative to vehicle control ([1]; RPTC, 24 hr, formoterol 30 nM, isoproterenol 10, 100, 1000 nM, BRL 37344 100, 300, 1000 nM, catecholamines 30 and 100 nM): No significant changes

(−)-Epinephrine
Average uncoupled OCR ratio ([1]; RPTC, 24 hr): 1.03 ± 0.1
